Assay results from paper PMC3726442, “Relationship between Genotypes Sult1a2 and Cyp2d6 and Tamoxifen Metabolism in Breast Cancer Patients” (PLoS ONE, 2013).

Tests used:
[1] = human, in vivo
[2] = Plasma concentrations of tamoxifen and its metabolites in breast cancer patients on tamoxifen, by HPLC-tandem mass spectrometry; conditions: patients receiving CYP2D6 inhibitors concomitantly with TAM

plasma concentration, mean ±SD [1] | mean plasma concentration (±SD) [2] | Compound
8.91 ± 7.71 ng/mL |  | 4-hydroxy-tamoxifen [4-OH-tamoxifen]
 | 180.10 ± 61.25 ng/mL | CC/C(=C(\c1ccccc1)c1ccc(OCCN(C)C)cc1)c1ccccc1 [Tamoxifen]
